Experimental data taken from ChEMBL document CHEMBL5385854, “Discovery of PPARγ and glucocorticoid receptor dual agonists to promote the adiponectin and leptin biosynthesis in human bone marrow mesenchymal stem cells” (Eur J Med Chem, 2023).

The chains behind the UniProt entries cited, without tags or fusion partners. Where a name states a change or a piece, a line headed by the entry shows the natural chain unless it says otherwise.
UniProt Q00535, whole entry, looked up: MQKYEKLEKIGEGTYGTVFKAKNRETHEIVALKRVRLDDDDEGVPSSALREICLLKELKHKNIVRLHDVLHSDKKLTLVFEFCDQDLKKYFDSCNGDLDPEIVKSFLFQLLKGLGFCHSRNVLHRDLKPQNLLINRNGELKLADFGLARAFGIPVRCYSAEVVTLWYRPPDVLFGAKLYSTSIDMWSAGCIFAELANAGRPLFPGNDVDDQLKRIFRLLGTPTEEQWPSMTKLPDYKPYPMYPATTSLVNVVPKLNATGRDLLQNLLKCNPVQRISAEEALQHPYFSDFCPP
UniProt Q15078: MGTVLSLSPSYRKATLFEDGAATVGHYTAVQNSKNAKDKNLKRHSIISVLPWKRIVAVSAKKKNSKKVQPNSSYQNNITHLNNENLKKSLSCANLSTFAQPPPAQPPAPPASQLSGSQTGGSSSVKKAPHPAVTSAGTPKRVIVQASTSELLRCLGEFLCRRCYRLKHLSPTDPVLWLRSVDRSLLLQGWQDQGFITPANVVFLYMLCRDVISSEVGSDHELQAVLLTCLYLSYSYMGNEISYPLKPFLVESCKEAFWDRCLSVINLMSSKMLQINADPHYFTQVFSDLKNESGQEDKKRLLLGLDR

Legend:
[1] = target: T1, Cyclin-dependent kinase 5/CDK5 activator 1 (Homo sapiens) (UniProt Q00535+Q15078); assay: Inhibition of human CDK5/p25 assessed as gamma-32P-ATP incorporation upto 30 uM by liquid scintillation counting analysis; type: protein-complex assay
[2] = target: T1, Cyclin-dependent kinase 5/CDK5 activator 1 (Homo sapiens); assay: Inhibition of human CDK5/p35 assessed as gamma-32P-ATP incorporation upto 30 uM by liquid scintillation counting analysis; type: protein-complex assay

inhibition [1] | inhibition [2] | SMILES
inactive | inactive | Cc1cc(O)c(C(=O)/C=C/c2ccncc2)c(=O)o1
inactive | inactive | Cc1cc(O)c(C(=O)/C=C/c2ccnc(F)c2)c(=O)o1

Active and inactive are the calls of the source. The calls are words filed in the database; no cut-off is given here.
